In test [1] the target is T1, human UCN1 (Homo sapiens, UniProt P55089).
T1 sequence (P55089 83-122 limits assumed): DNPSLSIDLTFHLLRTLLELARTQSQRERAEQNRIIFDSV
The test is described as follows: Human UCN1 ELISA binding. The note with it: Table 10; hUCN1 CT-biotin. The method, then: Streptavidin (Thermo, Cat: 21125) was diluted in PBS to a concentration of 2 μg/ml. 100 μl of diluted streptavidin was added per well to ELISA microplates, and the plates were incubated overnight at 4° C. Plates were blocked with ELISA blocking solution (containing 2% w/v BSA, 0.05% (v/v) Tween-20, pH 7.4 PBS buffer) at 37° C. for 1 hour, and then incubated with 0.5 μg/mL CRH (NT biotin), 0.5 μg/mL CRH (CT biotin), 1 μg/mL human UCN1 (NT biotin), or 1 μg/mL human UCN1 (CT biotin) for 1 hour at 37° C. Plates were then washed and incubated with diluted anti-CRH antibody (Ab) at 15 μg/ml (100 nM, 10 diluted, 8 points) for 1 hour at 37° C. Subsequently, plates were washed and incubated with HRP-conjugated goat anti-human IgG (H+L) antibody (Jackson, Cat: 109-035-088) at 37° C. for 1 hour. […] 100 μL of ELISA stopping solution (Solarbio, Cat #: C1058) was added to terminate the reaction, and the optical density at 450 nm (OD450 nm) was determined by an ELISA plate reader (Molecular Devices, Spectra max 384 plus).
Streptavidin (Thermo, Cat: 21125) was diluted in PBS with a concentration of 2 μg/mL. […] 100 μL of ELISA stopping solution (Solarbio, Cat #: C1058) was then added to terminate the reaction, and the OD450 nm was determined by an ELISA plate reader (Molecular Devices, Spectra max 384 plus).
(In general: An ELISA detects its analyte on a solid surface through an enzyme-linked reagent.)

The subject of test [2] is human CRHR1. The test is described as follows: CRH-induced luciferase reporter blocking assay, CHO-CRE-hCRHR1 cells. The note with it: 0.5 nM CRH. In kind it is cell-based. The method, then: To create CHO-CRE-hCRHR1, -hCRHR2, -mCRHR1, and -mCRHR2 reporter cell lines, pcDNA3.1-hCRHR1, -hCRHR2, -mCRHR1, and -mCRHR2 were introduced into CHO-CRE cells established above by electroporation as described above. Selection antibiotics hygromycin at 500 μg/ml and G418 at 1,000 μg/ml were employed. Individual established stable cell lines were characterized by both CRH and forskolin stimulation.
Activated GPCR proteins increase production of the intracellular cAMP.
Blocking CRHR1 by small molecules or neutralization of CRH peptide can reduce luciferase expression if the CRH-CRHR1 system works in CHO-CRE-hCRHR1 cells.
50 μl of 4× serially diluted antibodies was added (8 points, 1/4 diluted by growth medium) to plates containing CHO-CRE-hCRHR1 cells, and 50 μl of 4×CRH (4× is 2 nM, final is 0.5 nM) was added. Similarly, 4×CRH (4× is 0.4 nM, final is 0.1 nM) was added to CHO-CRE-hCRHR2 cells and CHO-CRE-mCRHR1 cells, and 4×CRH (4× is 20 nM, final is 5 nM) was added to CHO-CRE-mCRHR2 cells. Next, plates were incubated 4-6 hours at 37° C. in a CO2 incubator. 60 μl of culture medium was removed, to which was added 60 μl of Bio-Glo luciferase, followed by incubation for 10 min at RT. Plates were read in a luciferase plate reader (EnVision, PerkinElmer).
(A reporter such as luciferase makes a cellular process visible.)

B1: PR302341-28: Series 10 humanized, PTM-removed anti-CRH mAb (Table 9), scaled up for in vivo studies (antibody)
heavy: QVQLVQSGAEVKKPGASVKVSCKASGYTFTDYFMKWVRQAPGQGLEWMGVINPNQGDIFYNQKFKGRVTMTVDKSISTAYMELSRLRSDDTAVYYCARGTDRALFAYWGQGTLVTVSSASTKGPSVFPLAPSSKSTSGGTAALGCLVKDYFPEPVTVSWNSGALTSGVHTFPAVLQSSGLYSLSSVVTVPSSSLGTQTYICNVNHKPSNTKVDKKV[human IgG1 Fc not listed]
light: DVVMTQSPLSLPVTLGQPASISCRSGQSIVHSDGNTYLEWYQQRPGQSPRLLIYKVSNRFSGVPDRFSGSGSGTDFTLKISRVEAEDLGVYYCFQGSHIPWTFGGGTKVEIKRTVAAPSVFIFPPSDEQLKSGTASVVCLLNNFYPREAKVQWKVDNALQSGNSQESVTEQDSKDSTYSLSSTLTLSKADYEKHKVYACEVTHQGLSSPVTKSFNRGEC
The term EC50 denotes the concentration needed to bring the measured effect to its halfway point. In test [1], B1 returned an EC50 of 0.32 nM. This counts as sub-nanomolar.

B2: PR005660: ΔPTM variant of Series 1 mAb PR004290; HCDR2 54EG55, LCDR1 36QS37 (antibody)
heavy: EVQLVESGGVLVQPGGSLRLSCAASGFTFSSYWMTWVRQAPGKGLEWVANIKQEGSEKYYVDSVKGRFTISRDNAKNSLFLQMNSLRAEDTAVYYCARTLIFDYWGQGTLVTVSSASTKGPSVFPLAPSSKSTSGGTAALGCLVKDYFPEPVTVSWNSGALTSGVHTFPAVLQSSGLYSLSSVVTVPSSSLGTQTYICNVNHKPSNTKVDKKV[human IgG1 Fc not listed]
light: DIVMTQSPLSLPVTPGEPASISCRSSQSLLHSTGYQSLEWYLQKPGQSPQLLIYLGSNRASGVPDRFSGSGSGTDFTLKISRVEAEDVGIYYCMQTLQTPITFGQGTRLEIKRTVAAPSVFIFPPSDEQLKSGTASVVCLLNNFYPREAKVQWKVDNALQSGNSQESVTEQDSKDSTYSLSSTLTLSKADYEKHKVYACEVTHQGLSSPVTKSFNRGEC
The term IC50 denotes the concentration at which inhibition is half-maximal. Higher therefore signals lower potency. Turning to B2, the IC50 in test [2] was about 10 nM.

For the origin of these results see patent publication US20260042834A1, “ANTI-CORTICOTROPIN-RELEASING HORMONE ANTIBODIES AND POLYCYSTIC OVARY SYNDROME” (HBM ALPHA THERAPEUTICS, INC., priority 2022, published 2026).
